The text below walks through data of patent publication US20070202116A1, “Treatment of micro-organism infection” (priority 2001, published 2007).

The test system of this test is EMRSA-15. The class given is in vivo, S. aureus. The following applies: Group 3: Vancomycin 6 mg/kg alone iv; 48 hours. The procedure: Methods: 60 female CD-1 mice (22-24 g) were given 1×10^7 cfu of EMRSA-15 as a 100 μl iv bolus.
All mice were terminated at 48 hours for culture of kidney, liver and spleen.
Results: expressed as log cfu per gram of tissue, unless the majority of mice (>5) were cleared (ie organs were culture-negative). N/A=not applicable. (Table 7)

In the case of `CN[C@H](CC(C)C)C(=O)N[C@H]1C(=O)N[C@@H](CC(N)=O)C(=O)N[C@H]2C(=O)N[C@H]3C(=O)N[C@H](C(=O)N[C@H](C(=O)O)c4cc(O)cc(O)c4-c4cc3ccc4O)[C@H](O)c3ccc(c(Cl)c3)Oc3cc2cc(c3O[C@@H]2O[C@H](CO)[C@@H](O)[C@H](O)[C@H]2O[C@H]2C[C@](C)(N)[C@H](O)[C@H](C)O2)Oc2ccc(cc2Cl)[C@H]1O` [Vancomycin, vancomycin], the “Spleen Log cfu/g of tissue” value is listed as 3.63 ± 0.91 Log cfu/g of tissue.
